Several values for one entry are separate records, joined by “and”; a condition that tells them apart may be missing. Equal values may be shown once.
How the values were obtained:
OVCAR3 = target: T1, OVCAR3 (Homo sapiens, UniProt Q9UM47); test: Cytotoxicity (MTS) after control or Notch3 siRNA, OVCAR3; assay type: cell-based; conditions: 96 hours; for IC50 (ng Ab/mL) ± S.E.M., OVCAR3 Notch3 siRNA: Notch3 siRNA knockdown
T1 construct: Notch3 endogenously expressing cells MDA-MB-468, HCC2429 and OVCAR3; endogenous in cells; host or cells: OVCAR3
Protocol: (§1) Notch3 knockdown with siRNAs was used to confirm that the in vitro cytotoxicity of anti-Notch3 ADCs was dependent on the expression of the Notch3 protein. siRNA transfections were generated using ON-TARGET plus SMART pool human Notch3 (L-011093-00), ON-TARGET plus Control Non-Targeting pool (D-001810-10) (Thermo Scientific Dharmacon) and Lipofectamine RNAiMAX Reagent (Invitrogen). Two to 2.5×10^6 cells of HCC2429, OVCAR3 and MDA-MB-468/hNotch3 cells were plated in 10 cm dishes in growth medium without antibiotics the day before transfection. The next day fresh medium without antibiotics was added. The siRNAs and the Lipofectamine RNAiMAX were diluted in OPTI-MEM media and used as per the manufacturer's specifications. Each of the cell lines was transfected with control and Notch3 siRNAs. The cells were incubated with the transfection mixture for 24 hours in a humidified, 37° C., 5% CO2 incubator. After 24 hours, cells were trypsinized and plated for assessment using MTS cellular viability indicator (Promega, Madison, Wis.).
(§2) Depending on the cell line, cells were then seeded at a density of 2,500 to 5,000 cells per well 24 hours before treatment. Cells were treated with 3-fold serially diluted humanized anti-Notch3 ADCs in triplicates at 10 concentrations (range 0-30 μg Ab/ml). […] For experiments with 2 individual repeats, average IC50 values were calculated along with standard error of the mean (S.E.M.). Western blot analysis on extracts prepared from control and Notch3 siRNA-treated cells was performed to confirm that Notch3 knockdown occurred for up to 144 hours (data not shown). Cell lines that expressed Notch3 (herein termed control siRNA) or had reduced Notch3 expression after siRNA knockdown (herein termed Notch3 siRNA) were cultured with increasing concentrations of humanized anti Notch3 ADCs. As a specificity control for the anti-Notch3 ADCs, non-targeted control-ADCs (huNeg8.8-ADCs) were also tested on the same cell lines. After four days, viability of each culture was assessed. IC50 values were calculated by logistic non-linear regression, model #203 with XL fit v4.2 (IDBS, Guildford, Surry, UK) and presented as ng Ab/mL. The drug antibody ratio (DAR) is also provided.

By UniProt entry, the sequences of proteins in these tests, tags left out. Residues count along the entry.
UniProt Q9UM47, 40-2321: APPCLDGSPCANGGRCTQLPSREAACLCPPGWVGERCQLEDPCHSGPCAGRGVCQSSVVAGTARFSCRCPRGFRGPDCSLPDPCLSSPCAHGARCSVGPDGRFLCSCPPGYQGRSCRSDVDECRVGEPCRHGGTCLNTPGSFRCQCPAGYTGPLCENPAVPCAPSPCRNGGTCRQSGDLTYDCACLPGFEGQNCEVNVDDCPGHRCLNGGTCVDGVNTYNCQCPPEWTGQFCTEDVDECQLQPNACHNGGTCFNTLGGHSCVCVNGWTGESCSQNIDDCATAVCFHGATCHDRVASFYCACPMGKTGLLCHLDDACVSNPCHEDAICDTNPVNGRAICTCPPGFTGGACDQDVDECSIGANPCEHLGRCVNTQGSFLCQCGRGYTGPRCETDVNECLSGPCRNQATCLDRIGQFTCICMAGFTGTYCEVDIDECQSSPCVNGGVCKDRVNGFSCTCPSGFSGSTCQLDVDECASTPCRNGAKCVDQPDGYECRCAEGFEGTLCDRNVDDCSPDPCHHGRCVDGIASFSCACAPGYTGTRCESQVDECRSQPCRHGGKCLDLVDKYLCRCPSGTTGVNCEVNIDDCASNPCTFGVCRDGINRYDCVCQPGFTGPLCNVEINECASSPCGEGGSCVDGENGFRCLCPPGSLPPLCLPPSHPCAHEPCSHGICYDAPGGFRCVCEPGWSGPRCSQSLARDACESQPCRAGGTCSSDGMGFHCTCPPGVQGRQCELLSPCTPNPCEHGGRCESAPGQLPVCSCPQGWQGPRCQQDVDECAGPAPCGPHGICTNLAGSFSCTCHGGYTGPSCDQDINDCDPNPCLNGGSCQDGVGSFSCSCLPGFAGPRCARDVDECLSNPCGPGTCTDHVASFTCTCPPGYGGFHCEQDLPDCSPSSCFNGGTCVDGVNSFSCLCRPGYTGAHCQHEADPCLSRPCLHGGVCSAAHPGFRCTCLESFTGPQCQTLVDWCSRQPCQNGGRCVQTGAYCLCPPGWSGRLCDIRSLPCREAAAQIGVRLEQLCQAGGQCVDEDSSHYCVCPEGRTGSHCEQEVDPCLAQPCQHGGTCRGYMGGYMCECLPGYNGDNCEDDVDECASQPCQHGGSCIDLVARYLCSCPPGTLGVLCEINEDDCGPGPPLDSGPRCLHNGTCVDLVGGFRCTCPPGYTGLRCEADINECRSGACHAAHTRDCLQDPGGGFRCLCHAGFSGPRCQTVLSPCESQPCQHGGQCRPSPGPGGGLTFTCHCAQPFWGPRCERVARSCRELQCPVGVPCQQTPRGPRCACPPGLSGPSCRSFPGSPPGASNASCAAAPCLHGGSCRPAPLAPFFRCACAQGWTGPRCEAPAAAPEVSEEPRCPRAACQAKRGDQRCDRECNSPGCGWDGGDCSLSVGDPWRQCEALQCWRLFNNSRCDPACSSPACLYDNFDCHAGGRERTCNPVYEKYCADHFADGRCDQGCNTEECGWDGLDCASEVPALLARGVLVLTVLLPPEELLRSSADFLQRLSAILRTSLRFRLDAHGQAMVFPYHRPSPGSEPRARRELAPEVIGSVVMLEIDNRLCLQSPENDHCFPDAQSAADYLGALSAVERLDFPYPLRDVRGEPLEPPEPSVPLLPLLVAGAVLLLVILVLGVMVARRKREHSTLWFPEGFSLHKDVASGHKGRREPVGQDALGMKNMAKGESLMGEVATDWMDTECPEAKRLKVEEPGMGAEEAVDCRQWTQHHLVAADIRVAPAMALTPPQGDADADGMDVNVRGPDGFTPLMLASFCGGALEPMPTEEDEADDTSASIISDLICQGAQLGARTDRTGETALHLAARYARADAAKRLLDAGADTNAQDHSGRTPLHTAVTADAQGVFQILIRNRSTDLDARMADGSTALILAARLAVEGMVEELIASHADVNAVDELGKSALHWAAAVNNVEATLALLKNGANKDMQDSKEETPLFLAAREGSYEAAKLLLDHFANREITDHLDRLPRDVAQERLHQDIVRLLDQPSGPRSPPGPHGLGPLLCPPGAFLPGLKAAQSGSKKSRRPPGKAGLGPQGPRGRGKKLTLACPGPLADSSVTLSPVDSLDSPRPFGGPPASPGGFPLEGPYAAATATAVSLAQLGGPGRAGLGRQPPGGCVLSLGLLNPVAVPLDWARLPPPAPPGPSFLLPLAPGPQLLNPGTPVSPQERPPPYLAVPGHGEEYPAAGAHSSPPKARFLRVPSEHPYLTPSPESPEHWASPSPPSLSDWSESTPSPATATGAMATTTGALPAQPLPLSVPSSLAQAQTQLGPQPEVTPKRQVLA

[1] = test system: MDA-MB-468 (breast cancer); test: In vitro cytotoxicity (MTS), MDA-MB-468; assay type: cell-based, human; conditions: Table 14; LP = lacked potency
Protocol: (§3) The effects of anti-Notch3 ADCs were assessed on 1) cell lines endogenously expressing Notch3 protein: HCC2429 (lung cancer), OVCAR3 (ovarian cancer) and MDA-MB-468 (breast cancer), 2) cell lines engineered to over-express full length human Notch3 protein: MDA-MB-468/hNotch3 and U2OS/hNotch3, and 3) a negative control cell line (SW900) using an MTS cellular viability indicator (Promega, Madison, Wis.). These cell lines were cultured with increasing concentrations of anti-Notch3 ADCs comprising rat-human chimeric anti-Notch3 antibodies, ch28 and ch75, and humanized anti-Notch3 antibodies, hu28 and hu75, conjugated to various linker-payload combinations of the present invention. As a specificity control for the anti-Notch3-ADCs, non-targeted control-ADCs (huNeg8.8-ADCs or ch2H6-ADCs) were also tested on the same cell lines. After four days, viability of each culture was assessed. IC50 values were calculated by logistic non-linear regression, model #203 with XL fit v4.2 (IDBS, Guildford, Surry, UK) and presented as ng Ab/mL. The drug antibody ratio (DAR) is also provided.

HCC2429 (lung cancer) = test: In vitro cytotoxicity (MTS), HCC2429; assay type: cell-based, human; conditions: Table 14; two individual repeats; LP = lacked potency
Protocol: as §3, with “The drug antibody ratio (DAR) is also provided.” left out
This process generated the anti-Notch3 cysteine mutant ADCs: hu28-(L443C)-vc0101 and hu28-(L443C/κK183C)-vc0101. The activity of the anti-Notch3 cysteine mutant ADCs were assessed on cell lines endogenously expressing Notch3 protein: HCC2429 (lung cancer) and OVCAR3 (ovarian cancer) using an MTS cellular viability indicator as described in previous Examples.

N87 gastric xenografts = test: N87 gastric xenograft model; assay type: in vivo, mouse; conditions: for tumor volume: Table 27 study
Protocol: Similar in vivo experiments were performed with the N87 gastric cancer cell line as described above. To generate xenografts, nude (Nu/Nu) female mice were implanted subcutaneously with 8×10^6 N87 cells in 50% Matrigel (BD Biosciences).
The N87 gastric model was also dosed intravenously Q4d×4 with PBS vehicle, rat-human chimeric anti-Notch3 ADCs and control huNeg-8.8 ADCs, at a dose of 5 mg/kg as provided in FIG. 16D.
The N87 gastric model was also dosed intravenously Q4d×4 with PBS vehicle and rat-human chimeric anti-Notch3 ADCs ch28-mc0131, ch75-mc0131, ch28-m(H2O)c-0131 and ch75-m(H2O)c-0131 at a dose of 5 mg/kg as provided in FIG. 16E.

HCC2429 = target: T2, HCC2429 (Homo sapiens, UniProt Q9UM47); test: Cytotoxicity (MTS) after control or Notch3 siRNA, HCC2429; assay type: cell-based; conditions: 96 hours, LP = lacked potency
T2 construct: endogenous Notch3 expressing cell lines, HCC2429 and MDA-MB-468; endogenous in cells; host or cells: HCC2429
Protocol: as §1
as §2, with “As a specificity control for the anti-Notch3 ADCs, non-targeted control-ADCs (huNeg8.8-ADCs) were also tested on the same cell lines.” left out, “The drug antibody ratio (DAR) is also provided.” left out

B1: hu75-vc0101: hu75 conjugated to vc0101 linker-payload (conjugate)
heavy: EVQLVESGGGLVQPGGSLRLSCAASGYAFTDYWMTWVRQAPGKGLEWVAEISPNSGGTNFNEKFKGRFTISVDNAKNSLYLQMNSLRAEDTAVYYCARGEIRYNWFAYWGQGTLVTVSSASTKGPSVFPLAPSSKSTSGGTAALGCLVKDYFPEPVTVSWNSGALTSGVHTFPAVLQSSGLYSLSSVVTVPSSSLGTQTYICNVNHKPSNTKVDKKV[letters of human IgG1 Fc omitted]
light: DIQMTQSPSSLSASVGDRVTITCKASQNVGNNIAWYQQKPGKAPKLLIYYASNRYTGVPSRFSGSGYGTDFTLTISSLQPEDFATYYCQRLYNSPFTFGGGTKVEIKRTVAAPSVFIFPPSDEQLKSGTASVVCLLNNFYPREAKVQWKVDNALQSGNSQESVTEQDSKDSTYSLSSTLTLSKADYEKHKVYACEVTHQGLSSPVTKSFNRGEC
B1 was tested, and the “IC50 (ng Ab/mL) ± S.E.M., OVCAR3 Control siRNA” value (OVCAR3) was 1056 ± 158 ng Ab/mL, the “IC50 (ng Ab/mL) ± S.E.M., OVCAR3 Notch3 siRNA” value (OVCAR3) was 2408 ± 27.5 ng Ab/mL and the “IC50 (ng Ab/mL), MDA-MB-468” value [1] was 7001 ng Ab/mL. For the same molecule, the “IC50 (ng Ab/mL), HCC2429” value (HCC2429 (lung cancer)) was 611 ng Ab/mL and 3295 ng Ab/mL, the “animals that were tumor-free” value (N87 gastric xenografts; by day 133, 5 mg/kg dose group, iv Q4dx4) was 4 out of 9 and the “IC50 (ng Ab/mL) ± S.E.M., HCC2429 Control siRNA” value (HCC2429) was 956 ± 259 ng Ab/mL. The “IC50 (ng Ab/mL) ± S.E.M., HCC2429 Notch3 siRNA” value (HCC2429; Notch3 siRNA knockdown) was 8972 ± 891 ng Ab/mL.

B2: hu75-vc6780 (conjugate)
heavy: B1 heavy
light: B1 light
For B2, the “IC50 (ng Ab/mL) ± S.E.M., OVCAR3 Control siRNA” value (OVCAR3) was 690 ± 137 ng Ab/mL, the “IC50 (ng Ab/mL) ± S.E.M., OVCAR3 Notch3 siRNA” value (OVCAR3) was 7300 ± 147 ng Ab/mL and the “IC50 (ng Ab/mL), HCC2429” value (HCC2429 (lung cancer)) was 214 ng Ab/mL and 630 ng Ab/mL. It also gave a tumor volume (N87 gastric xenografts; DAY 4, dose 1 mg/kg intravenously Q4d×4) of 546 mm^3, a tumor volume (N87 gastric xenografts; DAY 4, dose 3 mg/kg intravenously Q4d×4) of 545 mm^3 and a tumor volume (N87 gastric xenografts; DAY 4, dose 10 mg/kg intravenously Q4d×4) of 468 mm^3. It also gave a tumor volume (N87 gastric xenografts; DAY 8, dose 1 mg/kg intravenously Q4d×4) of 563 mm^3, a tumor volume (N87 gastric xenografts; DAY 8, dose 3 mg/kg intravenously Q4d×4) of 511 mm^3 and a tumor volume (N87 gastric xenografts; DAY 8, dose 10 mg/kg intravenously Q4d×4) of 351 mm^3. The tumor volume (N87 gastric xenografts; DAY 11, dose 1 mg/kg intravenously Q4d×4) was 582 mm^3, the tumor volume (N87 gastric xenografts; DAY 11, dose 3 mg/kg intravenously Q4d×4) was 544 mm^3 and the tumor volume (N87 gastric xenografts; DAY 11, dose 10 mg/kg intravenously Q4d×4) was 316 mm^3. The tumor volume (N87 gastric xenografts; DAY 14, dose 1 mg/kg intravenously Q4d×4) was 667 mm^3, the tumor volume (N87 gastric xenografts; DAY 14, dose 3 mg/kg intravenously Q4d×4) was 558 mm^3 and the tumor volume (N87 gastric xenografts; DAY 14, dose 10 mg/kg intravenously Q4d×4) was 269 mm^3. It also gave a tumor volume (N87 gastric xenografts; DAY 18, dose 1 mg/kg intravenously Q4d×4) of 638 mm^3, a tumor volume (N87 gastric xenografts; DAY 18, dose 3 mg/kg intravenously Q4d×4) of 494 mm^3 and a tumor volume (N87 gastric xenografts; DAY 21, dose 1 mg/kg intravenously Q4d×4) of 709 mm^3. It also gave a tumor volume (N87 gastric xenografts; DAY 21, dose 3 mg/kg intravenously Q4d×4) of 534 mm^3, a tumor volume (N87 gastric xenografts; DAY 21, dose 10 mg/kg intravenously Q4d×4) of 192 mm^3 and a tumor volume (N87 gastric xenografts; DAY 25, dose 1 mg/kg intravenously Q4d×4) of 750 mm^3. For the same molecule, the tumor volume (N87 gastric xenografts; DAY 25, dose 3 mg/kg intravenously Q4d×4) was 628 mm^3, the tumor volume (N87 gastric xenografts; DAY 28, dose 1 mg/kg intravenously Q4d×4) was 763 mm^3 and the tumor volume (N87 gastric xenografts; DAY 28, dose 3 mg/kg intravenously Q4d×4) was 645 mm^3. The tumor volume (N87 gastric xenografts; DAY 28, dose 10 mg/kg intravenously Q4d×4) was 244 mm^3, the tumor volume (N87 gastric xenografts; DAY 33, dose 1 mg/kg intravenously Q4d×4) was 991 mm^3 and the tumor volume (N87 gastric xenografts; DAY 33, dose 3 mg/kg intravenously Q4d×4) was 730 mm^3. For the same molecule, the tumor volume (N87 gastric xenografts; DAY 33, dose 10 mg/kg intravenously Q4d×4) was 267 mm^3, the tumor volume (N87 gastric xenografts; DAY 36, dose 3 mg/kg intravenously Q4d×4) was 850 mm^3 and the tumor volume (N87 gastric xenografts; DAY 36, dose 10 mg/kg intravenously Q4d×4) was 300 mm^3. The tumor volume (N87 gastric xenografts; DAY 39, dose 3 mg/kg intravenously Q4d×4) was 881 mm^3, the tumor volume (N87 gastric xenografts; DAY 39, dose 10 mg/kg intravenously Q4d×4) was 323 mm^3 and the tumor volume (N87 gastric xenografts; DAY 42, dose 3 mg/kg intravenously Q4d×4) was 1020 mm^3. The tumor volume (N87 gastric xenografts; DAY 42, dose 10 mg/kg intravenously Q4d×4) was 350 mm^3 and the “IC50 (ng Ab/mL) ± S.E.M., HCC2429 Control siRNA” value (HCC2429) was 236 ± 30.5 ng Ab/mL.
